Values quoted from earlier work in patent publication US9896711B2, “Fluorogenic or fluorophoric compounds and uses thereof” (3M INNOVATIVE PROPERTIES COMPANY, priority 2011, dated 2018).

Settings: see Bioorg. and Med. Chem. Lett., 8, 3107-3110 (1998); cited from earlier work

## 6,8-difluoro-3-ethylcarboxylate-7-hydroxycoumarin
  pKa: 3.8
